Patent US7109310B2

Assays:
[1] = in man, within 72 hours; cited from earlier work
[2] = tested on: IgG fraction of the antiserum raised to Immunogen A (Hapten A-BSA); assay: Competitive ELISA microtiter plate assay, antiserum to immunogen A with conjugate B (hapten B-HRP); conditions: for A450: absorbance at 450 nm
[3] = tested on: IgG fraction of the antiserum raised to Immunogen A (Hapten A-BSA); assay: Competitive ELISA microtiter plate assay, antiserum to immunogen A with conjugate G (hapten G-HRP); conditions: for A450: absorbance at 450 nm
[4] = tested on: IgG fraction of the antiserum raised to immunogen C (hapten C-BSA); assay: Competitive ELISA microtiter plate assay, antiserum to immunogen C with conjugate E (hapten E-HRP); conditions: for A450: absorbance at 450 nm
[5] = standard concentration 0.05 ng/ml
[6] = standard concentration 0.1 ng/ml
[7] = standard concentration 0.5 ng/ml
[8] = standard concentration 25 ng/ml
[9] = standard concentration 250 ng/ml
[10] = standard concentration which produces 50% B/B0

## CCC(=O)N(c1ccccc1)C1CCN(CCc2ccccc2)CC1
[1]
  fentanyl dose excreted in urine: approximately 80%
[2]; [5]
  % B/B0: 90.15%
  A450: 2.07
[2]; [6]
  % B/B0: 80.2%
  A450: 1.84
[2]; [7]
  % B/B0: 54.91%
  A450: 1.26
[2]; standard concentration 1 ng/ml
  % B/B0: 38.01%
  A450: 0.87
[2]; standard concentration 5 ng/ml
  A450: 0.27
[2]; [8]
  % B/B0: 3.68%
  A450: 0.08
[2]; [9]
  % B/B0: 3.53%
  A450: 0.08
[2]; [10]
  IC50: 0.61 ng/mL (≈ 1.81 nM)
[3]; [5]
  % B/B0: 97.09%
  A450: 1.94
[3]; [6]
  % B/B0: 97.54%
  A450: 1.94
[3]; [7]
  % B/B0: 85.9%
  A450: 1.71
[3]; standard concentration 1 ng/ml
  % B/B0: 73.66%
  A450: 1.47
[3]; standard concentration 5 ng/ml
  % B/B0: 19.97%
  A450: 0.4
[3]; [8]
  % B/B0: 3.54%
  A450: 0.07
[3]; [9]
  % B/B0: 1.43%
  A450: 0.03
[3]; [10]
  IC50: 2.03 ng/mL (≈ 6.03 nM)
[4]; [5]
  % B/B0: 82.2%
  A450: 1.9
[4]; [6]
  % B/B0: 68.2%
  A450: 1.6
[4]; [7]
  % B/B0: 34.4%
  A450: 0.8
[4]; standard concentration 1 ng/ml
  % B/B0: 23.4%
  A450: 0.5
[4]; standard concentration 5 ng/ml
  % B/B0: 8.4%
  A450: 0.2
[4]; [8]
  % B/B0: 2.8%
  A450: 0.1
[4]; [9]
  % B/B0: 1.0%
  A450: 0.0
[4]; [10]
  IC50: 0.24 ng/mL (≈ 0.713 nM)

Values after ≈ are worked out from the molar mass of the structure shown. This is a selection: effects in other tests are not listed, and their absence says nothing.
